Source: article PMC4399811 (Bioorganic & medicinal chemistry letters, 2015)

By UniProt entry, the sequences of proteins in these tests, tags left out. Residues count along the entry.
UniProt Q14832, 23-879: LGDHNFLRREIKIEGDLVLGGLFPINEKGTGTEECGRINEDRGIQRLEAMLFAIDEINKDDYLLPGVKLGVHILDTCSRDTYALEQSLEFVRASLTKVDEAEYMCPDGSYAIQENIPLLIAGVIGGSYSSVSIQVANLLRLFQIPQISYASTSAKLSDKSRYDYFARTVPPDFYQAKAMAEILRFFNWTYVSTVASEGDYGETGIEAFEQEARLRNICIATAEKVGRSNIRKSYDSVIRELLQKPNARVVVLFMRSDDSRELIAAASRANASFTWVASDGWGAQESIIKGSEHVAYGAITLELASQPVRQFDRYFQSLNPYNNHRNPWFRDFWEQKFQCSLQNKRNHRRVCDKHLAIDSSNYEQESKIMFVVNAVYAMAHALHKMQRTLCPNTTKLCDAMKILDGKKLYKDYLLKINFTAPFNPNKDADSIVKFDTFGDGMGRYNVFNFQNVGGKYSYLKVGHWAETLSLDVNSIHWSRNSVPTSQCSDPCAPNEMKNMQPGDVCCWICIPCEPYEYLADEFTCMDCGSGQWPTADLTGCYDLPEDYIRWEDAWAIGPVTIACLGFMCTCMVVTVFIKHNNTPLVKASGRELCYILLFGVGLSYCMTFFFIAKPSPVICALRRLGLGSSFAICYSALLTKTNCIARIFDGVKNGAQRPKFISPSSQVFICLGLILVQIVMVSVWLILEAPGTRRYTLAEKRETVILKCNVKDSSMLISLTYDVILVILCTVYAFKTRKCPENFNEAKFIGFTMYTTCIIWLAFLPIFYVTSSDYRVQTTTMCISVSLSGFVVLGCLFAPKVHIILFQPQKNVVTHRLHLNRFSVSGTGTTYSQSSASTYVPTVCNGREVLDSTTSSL
UniProt P31424, 21-1203: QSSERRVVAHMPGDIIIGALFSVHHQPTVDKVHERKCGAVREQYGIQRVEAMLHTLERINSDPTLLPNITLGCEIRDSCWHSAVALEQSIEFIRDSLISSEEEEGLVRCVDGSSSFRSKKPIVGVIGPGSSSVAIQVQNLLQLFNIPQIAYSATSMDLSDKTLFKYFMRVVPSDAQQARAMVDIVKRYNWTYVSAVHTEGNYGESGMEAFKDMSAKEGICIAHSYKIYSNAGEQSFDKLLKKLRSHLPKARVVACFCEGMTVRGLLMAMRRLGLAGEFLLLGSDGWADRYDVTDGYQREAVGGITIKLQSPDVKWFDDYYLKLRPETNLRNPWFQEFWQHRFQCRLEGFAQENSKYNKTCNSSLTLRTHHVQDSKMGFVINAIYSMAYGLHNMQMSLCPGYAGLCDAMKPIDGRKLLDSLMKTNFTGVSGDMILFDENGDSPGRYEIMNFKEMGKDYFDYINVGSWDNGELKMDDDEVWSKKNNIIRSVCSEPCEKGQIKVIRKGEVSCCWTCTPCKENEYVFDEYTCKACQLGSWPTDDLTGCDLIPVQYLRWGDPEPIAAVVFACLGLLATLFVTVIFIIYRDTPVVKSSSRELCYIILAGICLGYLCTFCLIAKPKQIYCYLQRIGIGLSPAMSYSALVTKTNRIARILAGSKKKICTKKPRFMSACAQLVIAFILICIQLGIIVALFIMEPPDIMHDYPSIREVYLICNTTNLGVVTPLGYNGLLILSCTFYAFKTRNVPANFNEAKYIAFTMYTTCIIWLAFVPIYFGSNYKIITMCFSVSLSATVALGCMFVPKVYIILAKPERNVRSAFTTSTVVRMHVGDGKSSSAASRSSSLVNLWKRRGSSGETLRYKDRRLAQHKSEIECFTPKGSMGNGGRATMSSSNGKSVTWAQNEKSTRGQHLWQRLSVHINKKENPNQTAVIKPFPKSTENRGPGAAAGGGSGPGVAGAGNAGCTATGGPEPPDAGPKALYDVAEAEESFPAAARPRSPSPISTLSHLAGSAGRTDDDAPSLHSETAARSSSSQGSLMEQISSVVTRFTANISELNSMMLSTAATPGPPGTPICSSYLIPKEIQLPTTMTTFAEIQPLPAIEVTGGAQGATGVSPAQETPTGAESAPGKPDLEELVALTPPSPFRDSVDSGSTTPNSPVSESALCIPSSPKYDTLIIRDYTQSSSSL

Tests used:
[1] = molecular target: mGlu3 (Homo sapiens, UniProt Q14832); conditions: mGlu3 IC50 vs mGlu5 EC50
[2] = molecular target: rat mGlu5 receptors (Rattus norvegicus, UniProt P31424); experiment: 'triple add' calcium mobilization assay, mGlu5 PAM/NAM/agonist modes; type: cell-based; conditions: dihydro analogue 4 vs corresponding analogue 3

## O=C1N(c2ccc(F)cc2)CCc2nc(COc3ccccc3)cn21 [4a]
[1]
  functional selectivity for mGlu5 (vs mGlu3): ~ 3 fold
[2]
  fold increase in mGlu5 potency vs series 3 counterpart: ~ 3.5 fold
